Source: patent US7119208B2, “Anti-sickling agents” (Virginia Commonwealth University, priority 2003, dated 2006)

How the values were obtained:
SS cells = experiment: Oxygen equilibrium studies with homozygous sickle red blood cells; format: cell-based, human; conditions: 5 mM, FIG. 3
Procedure: SS cells were suspended in PBS to a final hematocrit of 10%. […] A 40 uL aliquot of this suspension was added to 4 ml Hemox buffer and subjected to oxygen equilibrium analysis (37° C.) using a Hemox-Analyzer (TCS Scientific Corp., Southampton, Pa.) (Asakura, 1979).

rats = conditions: cited from earlier work; for acute oral LD50: rats

O=Cc1ccc(CO)o1 [Compound 5HMF, 5-hydroxymethyl-2-furfuraldehyde]
shift of oxygen equilibrium curve of SS cell suspensions (SS cells): significant left shift | LD50 (rats; US EPA, 1992): 2500 to 5000 mg/kg | acute oral LD50 (rats; females): 2500 to 5000 mg/kg | acute oral LD50 (rats; males): 2500 mg/kg

Where two headings read alike, the source gives them in different places.
